These are literature values, as cited in patent US20220280611A1, “SOLID COMPOSITION COMPRISING A PYY COMPOUND AND A SALT OF N-(8-(2- HYDROXYBENZOYL)AMINO)CAPRYLIC ACID” (Novo Nordisk A/S, priority 2019, published 2022).

The conditions of this data set: in pigs; cited from earlier work.

Turning to “PYY(3-36): PYY(1-36) cleaved by dipeptidyl peptidase IV; hPYY(3-36), SEQ ID NO:2”, the half-life was under 30 min.

For orientation: half-life means the time in which the quantity being followed falls by half.
